Experimental data as given in patent US4710500A, “1-(4'-fluorophenyl)-3,5-substituted indoles useful in the treatment of psychic disorders and pharmaceutical compositions thereof” (H. Lundbeck A/S, priority 1985, dated 1987).

Sequences of proteins named here, by UniProt entry; tags and fusion partners are left off.
UniProt P14842, whole entry: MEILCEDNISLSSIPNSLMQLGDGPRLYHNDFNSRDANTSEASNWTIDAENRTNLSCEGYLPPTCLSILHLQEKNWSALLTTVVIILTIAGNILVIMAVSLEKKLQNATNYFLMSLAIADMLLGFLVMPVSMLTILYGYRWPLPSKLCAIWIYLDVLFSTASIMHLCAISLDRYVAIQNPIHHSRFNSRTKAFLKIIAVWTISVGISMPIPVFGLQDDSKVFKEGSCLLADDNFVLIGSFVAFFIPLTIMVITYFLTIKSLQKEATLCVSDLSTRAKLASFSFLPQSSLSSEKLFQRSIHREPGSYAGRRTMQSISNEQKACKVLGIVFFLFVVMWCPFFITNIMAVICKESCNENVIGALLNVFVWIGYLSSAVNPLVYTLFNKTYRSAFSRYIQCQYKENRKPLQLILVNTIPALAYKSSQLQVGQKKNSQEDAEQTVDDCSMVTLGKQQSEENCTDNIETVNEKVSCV

Target: T1, 5-HT2 receptor (Rattus norvegicus, UniProt P14842)
T1 construct: from tissue; host or cells: living rats (in vivo), CNS
Experiment: Quipazine inhibition (head twitches)
Type: in vivo
Conditions: sc, 2 h, read-out: Qvipaz. inh. ED50(sc)

CN(C)CCCN1c2ccccc2Sc2ccc(Cl)cc21 [Clorpromazine, reference compound]
ED50: 0.38 µmol/kg
